The results in this text go back to ChEMBL document CHEMBL3046476, “Qsar for Acetylcholinesterase and Butyrylcholinesterase Inhibition by Cardiovascular Drugs and Benzodiazepines” (Med Chem Res, 2005).

Sequences of proteins named here, by UniProt entry; tags and fusion partners are left off.
UniProt P81908, whole entry, looked up: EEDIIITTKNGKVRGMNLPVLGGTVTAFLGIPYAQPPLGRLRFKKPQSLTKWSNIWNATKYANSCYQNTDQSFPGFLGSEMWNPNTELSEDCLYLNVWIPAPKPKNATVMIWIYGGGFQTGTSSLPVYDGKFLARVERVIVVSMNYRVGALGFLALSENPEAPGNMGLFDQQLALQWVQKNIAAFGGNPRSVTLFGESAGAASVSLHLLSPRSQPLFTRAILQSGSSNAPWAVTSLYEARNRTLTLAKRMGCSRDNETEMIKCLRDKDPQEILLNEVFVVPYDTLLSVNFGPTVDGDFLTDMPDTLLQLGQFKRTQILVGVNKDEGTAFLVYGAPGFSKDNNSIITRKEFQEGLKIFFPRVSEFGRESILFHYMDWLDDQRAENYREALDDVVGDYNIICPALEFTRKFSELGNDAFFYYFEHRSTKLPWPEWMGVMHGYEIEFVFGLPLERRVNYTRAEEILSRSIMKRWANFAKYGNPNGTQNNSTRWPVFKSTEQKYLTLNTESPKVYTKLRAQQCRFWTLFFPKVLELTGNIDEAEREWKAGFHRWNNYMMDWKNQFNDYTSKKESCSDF

One test has as its target Cholinesterase (Equus caballus, UniProt P81908). Nature of the test: Inhibition of Equus caballus (horse) serum butyrylcholinesterase (BChE) assessed as inhibition of BTCh hydrolysis by Ellman method. A general note: Ellman's reagent forms a yellow product with free thiols.
The target of another test is Acetylcholinesterase (Electrophorus electricus, UniProt O42275).

The term pKi denotes −log10 of the Ki, conventionally taken in molar units. For orientation: Ki means the dissociation constant of the complex between target and ligand, obtained from inhibition or displacement.

`CNC1=Nc2ccc(Cl)cc2C(c2ccccc2)=[N+]([O-])C1.Cl`: the pKi at Cholinesterase came to 5.3.

In the case of `CNC1=Nc2ccc(Cl)cc2C(c2ccccc2)=[N+]([O-])C1`, the figures for the Ki on Cholinesterase and on Acetylcholinesterase were 0.3 µM and 50 µM, respectively.
